Biological target: Histone deacetylase 4 (Homo sapiens, UniProt P56524)
Assay: Inhibition of human recombinant HDAC4 using fluorogenic substrate measured after 30 mins

Protein sequences, listed by entry. Tags and fused reporters are not part of them. Lines headed by an entry give the natural chain unless they say otherwise; changes in a name come on top.
UniProt P56524: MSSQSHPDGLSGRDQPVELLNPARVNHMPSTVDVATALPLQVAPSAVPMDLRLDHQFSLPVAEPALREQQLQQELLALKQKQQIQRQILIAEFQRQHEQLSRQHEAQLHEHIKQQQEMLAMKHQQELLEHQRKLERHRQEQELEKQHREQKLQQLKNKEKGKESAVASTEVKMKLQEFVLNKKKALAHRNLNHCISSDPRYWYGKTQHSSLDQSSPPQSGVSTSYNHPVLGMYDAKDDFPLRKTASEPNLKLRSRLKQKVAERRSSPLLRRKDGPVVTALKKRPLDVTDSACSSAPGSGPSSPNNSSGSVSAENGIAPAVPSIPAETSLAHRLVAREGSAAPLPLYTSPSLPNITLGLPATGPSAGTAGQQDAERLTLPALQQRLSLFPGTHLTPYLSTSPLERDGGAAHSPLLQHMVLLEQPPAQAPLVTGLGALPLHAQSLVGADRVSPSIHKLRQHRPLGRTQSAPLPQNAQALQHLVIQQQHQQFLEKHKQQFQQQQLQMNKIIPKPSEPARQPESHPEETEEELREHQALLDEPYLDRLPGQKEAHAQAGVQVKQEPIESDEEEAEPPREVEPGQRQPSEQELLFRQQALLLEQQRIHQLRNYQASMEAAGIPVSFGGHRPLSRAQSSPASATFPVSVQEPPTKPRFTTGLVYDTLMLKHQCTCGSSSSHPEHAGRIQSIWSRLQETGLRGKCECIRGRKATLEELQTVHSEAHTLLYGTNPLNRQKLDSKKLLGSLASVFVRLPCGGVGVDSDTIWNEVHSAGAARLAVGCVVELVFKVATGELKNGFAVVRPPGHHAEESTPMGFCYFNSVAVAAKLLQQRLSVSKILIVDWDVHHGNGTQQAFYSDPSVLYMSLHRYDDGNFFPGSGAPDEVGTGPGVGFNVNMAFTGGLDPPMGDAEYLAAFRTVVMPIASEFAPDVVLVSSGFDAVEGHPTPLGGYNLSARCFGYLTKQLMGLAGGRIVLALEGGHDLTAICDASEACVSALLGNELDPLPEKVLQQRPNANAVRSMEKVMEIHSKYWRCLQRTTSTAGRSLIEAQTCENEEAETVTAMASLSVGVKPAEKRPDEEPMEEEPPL

CN1CCc2c(c3ccccc3n2Cc2ccc(C(=O)NO)cc2)C1 [TUBASTATIN A] was tested, and the IC50 was 4.27 µM.
